Assay [1] has as its target PLK1 (Homo sapiens (Human), UniProt P53350). The assay can be described thus: Kinase profiling. It counts as biochemical.
For assay [2], the target named is PKCzeta (Homo sapiens (Human), UniProt Q05513). Kind of assay: Kinase profiling. It counts as biochemical.
For assay [3], the target named is c-Kit (V560G) (Homo sapiens (Human), UniProt P10721, V560G). The assay can be described thus: biochemical.
Assay [4] has as its system U2OS osteosarcoma cells. The assay can be described thus: Induction of apoptosis in U2OS cells (Caspase Glo, Cell Titer Blue). It counts as cell-based. To be noted: 24 hours, FIG. 3. The method, then:
U2OS cells were treated with increasing concentrations of the compound for 24 hours. Cell viability was measured by incubating cells with Cell Titer Blue reagent at 37° C. for 3 hours under 5% CO2. Thereafter the cells were incubated with Caspase Glo reagent for 1 hour at room temperature to assay induction of Caspase 3/7 activity.
Cell viability was measured by incubating cells with Cell Titer Blue reagent (Promega) at 37° C. for 3 hours under 5% CO2. Thereafter the cells were incubated with Caspase Glo reagent (Promega) for 1 hour at room temperature to assay induction of Caspase 3/7 activity.
In general terms: Resazurin is reduced to fluorescent resorufin, in cell work by metabolically active cells.

Chains of the proteins cited; added tags and fusions are not shown. Lines headed by an entry give the natural chain unless they say otherwise; changes in a name come on top. Residues count along the entry.
UniProt P53350, whole entry: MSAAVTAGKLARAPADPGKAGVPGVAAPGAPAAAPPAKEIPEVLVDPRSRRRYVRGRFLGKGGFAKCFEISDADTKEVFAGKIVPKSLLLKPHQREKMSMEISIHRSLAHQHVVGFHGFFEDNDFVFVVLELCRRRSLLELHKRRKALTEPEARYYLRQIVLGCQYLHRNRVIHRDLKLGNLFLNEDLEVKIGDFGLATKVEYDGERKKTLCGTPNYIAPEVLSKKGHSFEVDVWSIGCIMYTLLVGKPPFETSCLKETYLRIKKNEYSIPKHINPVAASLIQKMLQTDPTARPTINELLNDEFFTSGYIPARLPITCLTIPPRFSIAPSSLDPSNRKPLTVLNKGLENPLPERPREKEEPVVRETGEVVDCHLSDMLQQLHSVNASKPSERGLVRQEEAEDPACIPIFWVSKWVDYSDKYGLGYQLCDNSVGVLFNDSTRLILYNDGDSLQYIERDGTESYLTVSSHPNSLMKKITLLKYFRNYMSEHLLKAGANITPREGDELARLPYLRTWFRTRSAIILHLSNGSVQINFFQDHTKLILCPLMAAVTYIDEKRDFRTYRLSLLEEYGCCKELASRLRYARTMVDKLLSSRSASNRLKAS
UniProt Q05513: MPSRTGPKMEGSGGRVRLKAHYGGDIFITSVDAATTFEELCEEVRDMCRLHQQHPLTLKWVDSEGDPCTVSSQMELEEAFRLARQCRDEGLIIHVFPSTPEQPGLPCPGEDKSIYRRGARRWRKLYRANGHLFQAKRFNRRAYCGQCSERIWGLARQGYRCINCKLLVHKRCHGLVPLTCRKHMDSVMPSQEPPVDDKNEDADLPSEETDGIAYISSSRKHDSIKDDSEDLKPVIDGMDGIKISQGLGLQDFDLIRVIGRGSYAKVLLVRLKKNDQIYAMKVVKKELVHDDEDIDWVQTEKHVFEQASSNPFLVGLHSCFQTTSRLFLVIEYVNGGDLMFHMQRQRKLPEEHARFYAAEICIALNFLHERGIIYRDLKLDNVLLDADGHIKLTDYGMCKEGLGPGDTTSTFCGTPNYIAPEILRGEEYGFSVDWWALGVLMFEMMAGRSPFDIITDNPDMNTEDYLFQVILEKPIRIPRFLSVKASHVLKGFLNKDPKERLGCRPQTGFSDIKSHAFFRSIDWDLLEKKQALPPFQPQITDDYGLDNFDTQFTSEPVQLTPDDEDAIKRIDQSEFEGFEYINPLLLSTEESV
UniProt P10721, 26-976 V560G: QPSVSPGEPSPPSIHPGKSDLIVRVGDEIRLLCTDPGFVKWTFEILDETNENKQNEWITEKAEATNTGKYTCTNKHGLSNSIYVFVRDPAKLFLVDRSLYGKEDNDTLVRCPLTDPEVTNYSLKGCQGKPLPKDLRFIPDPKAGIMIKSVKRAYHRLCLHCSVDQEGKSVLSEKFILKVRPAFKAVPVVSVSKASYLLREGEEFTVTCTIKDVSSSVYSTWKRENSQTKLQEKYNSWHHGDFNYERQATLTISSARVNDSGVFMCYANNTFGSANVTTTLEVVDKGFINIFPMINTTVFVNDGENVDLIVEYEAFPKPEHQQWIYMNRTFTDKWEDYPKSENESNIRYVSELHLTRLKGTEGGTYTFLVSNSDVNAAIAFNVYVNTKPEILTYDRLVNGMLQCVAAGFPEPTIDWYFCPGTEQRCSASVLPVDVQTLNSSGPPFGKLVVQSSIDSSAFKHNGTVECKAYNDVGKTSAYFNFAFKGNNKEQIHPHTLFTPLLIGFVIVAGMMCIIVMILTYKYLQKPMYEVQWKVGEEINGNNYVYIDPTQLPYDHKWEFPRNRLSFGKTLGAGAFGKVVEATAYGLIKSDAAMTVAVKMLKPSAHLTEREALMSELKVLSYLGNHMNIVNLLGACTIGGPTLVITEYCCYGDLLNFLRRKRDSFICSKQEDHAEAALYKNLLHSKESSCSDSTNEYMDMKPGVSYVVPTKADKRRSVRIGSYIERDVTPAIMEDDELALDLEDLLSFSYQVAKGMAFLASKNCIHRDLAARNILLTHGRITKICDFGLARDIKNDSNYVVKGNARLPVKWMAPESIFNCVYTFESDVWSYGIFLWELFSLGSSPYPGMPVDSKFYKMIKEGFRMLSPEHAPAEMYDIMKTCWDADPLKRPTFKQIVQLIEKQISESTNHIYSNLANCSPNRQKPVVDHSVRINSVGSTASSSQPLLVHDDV

The term IC50 denotes the concentration at which inhibition is half-maximal. Lower therefore signals higher potency.

As for `Cn1c(=O)c(S(=O)(=O)c2ccc(F)cc2F)cc2cnc(Nc3ccc4[nH]ccc4c3)nc21` [Example 39, 2-(1H-indol-5-ylamino)-6-(2,4-difluorophenylsulfonyl)-8-methylpyrido[2,3-d]pyrimidin-7(8H)-one], the values for the IC50 in assay [1], in assay [2] and in assay [3] were 7.82 µM, > 10 µM and 6.15 µM, respectively. Also, in assay [4], the “induction of caspase 3/7 activity” value is listed as “induction of caspase 3/7 activity in a dose dependant manner”.
